Experimental melting point values from OPERA 2.9

From the experimental data distributed with OPERA 2.9.

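The numbers are reported measurements, compiled and curated for the OPERA QSAR suite. The files give a single number for a compound and property, which may rest on several reports. How each value was measured is not recorded, so precision varies. The measured form (salt, isomer or mixture) is not always the one drawn. Some upstream entries may be estimates or bounds without being marked so.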

The melting point is given in degrees Celsius. "n/a" marks a cell with nothing listed here. "via" names the databases from which the curators took the value.

SMILES,name,melting point (°C),via
CCCCCCCCCCCCCCCCCCN(CCCCCCCCCCCCCCCCCC)C(=O)c1ccccc1C(=O)O,"Benzoic acid, 2-[(dioctadecylamino)carbonyl]-",41.15,eChemPortal
CC(CC(C)C)=NNC(=O)c1cc2ccccc2cc1O,"N'-(1,3-Dimethylbutylidene)-3-hydroxy-2-naphthohydrazide",149.9,eChemPortal
CN(C)CCOCCN(C)CCO,2-[{2-[2-(Dimethylamino)ethoxy]ethyl}(methyl)amino]ethanol,-53,eChemPortal
CCCCCCC(=O)OCC(CC)(COC(=O)CCCCCC)COC(=O)CCCCCC,"1,1,1-Trimethylolpropane triheptanoate",-66,eChemPortal
Nc1cc(S(=O)(=O)[O-])cc2cc(S(=O)(=O)[O-])c(N=Nc3ccccc3)c(O)c12.[Na+].[Na+],D&C Red No. 33,349.9,eChemPortal
Nc1nc(SCc2ccccc2)n[nH]1,"3-(Benzylsulfanyl)-1H-1,2,4-triazol-5-amine",100,OCHEM
CCCCCCOc1ccc(C=O)cc1OC,4-(Hexyloxy)-m-anisaldehyde,40,OCHEM
NC(=O)COc1ccccc1C(=O)O,2-(2-amino-2-oxoethoxy)benzoic acid,200,OCHEM
O=S(=O)(c1ccc2c(c1)CCN2)N1CCOCC1,5-(morpholin-4-ylsulfonyl)indoline,175,OCHEM
CC1=CC(=O)N(Cc2cccc(CN3C(=O)C=C(C)C3=O)c2)C1=O,n/a,85,eChemPortal
COC(=O)c1ccccc1OS(=O)(=O)c1ccc(C)cc1,Methyl 2-[(4-methylbenzene-1-sulfonyl)oxy]benzoate,137.6,eChemPortal
CC1(C)[C@H]2[C@H](C(Br)(Br)Br)OC(=O)[C@H]21,n/a,86.85,eChemPortal
O=C(O)C1CNCc2ccccc21 (stereo not drawn),"1,2,3,4-Tetrahydroisoquinoline-4-carboxylic acid",234,OCHEM
C=C(C)C(=O)OCC1CCCO1 (stereo not drawn),Tetrahydrofurfuryl methacrylate,-113,eChemPortal
CCNC(=O)COC(=O)c1ccccc1OC(C)=O,2-(Ethylamino)-2-oxoethyl 2-(acetyloxy)benzoate,80.5,OCHEM
Cc1cc(C)c(C(=O)O)c(Cl)n1,"2-Chloro-4,6-dimethylnicotinic acid",80,OCHEM
O=C(O)C1CC2CCCC(C1)C2=O (stereo not drawn),9-Oxo-bicyclo[3.3.1]nonane-3-carboxylic acid,130,OCHEM
O=C(O)c1ccc(N2CCCCC2=O)cc1,4-(2-oxopiperidin-1-yl)benzoic acid,214,OCHEM
NC(=O)NC(=O)CCCl,N-Carbamoyl-3-chloropropanamide,172,OCHEM
Fc1ccc(C2(c3ccccc3F)CO2)cc1 (stereo not drawn),2-(2-Fluorophenyl)-2-(4-fluorophenyl)oxirane,3,eChemPortal
CC(c1ccc(OC#N)cc1)c1ccc(OC#N)cc1,"4,4'-Ethylidenediphenyl dicyanate",29,eChemPortal
CC(C)C1OCCN1CCOC(=O)NCCCCCCNC(=O)OCCN1CCOC1C(C)C (stereo not drawn),n/a,-45.05,eChemPortal
COc1cc(C(=O)O)ccc1OC(C)C,4-isopropoxy-3-methoxybenzoic acid,141,OCHEM
CCC1(CC=C2CCCc3cc(OC)ccc32)C(=O)CCC1=O,n/a,68,eChemPortal
CCOC(=O)c1c(-c2ccccc2)oc2ccc(O)cc12,5-Hydroxy-2-phenyl-benzofuran-3-carboxylic acid ethyl ester,153,OCHEM
C=C[C@H]1CC[C@H]([C@H]2CC[C@H](CCC)CC2)CC1,n/a,34.4,eChemPortal
Clc1ccc(C(Cl)c2ccc(Cl)cc2)cc1,"1,1-Bis(4-chlorophenyl)chloromethane",58,OCHEM
Cc1cccc(OCC(=O)NN)c1,"Acetic acid, (3-methylphenoxy)-, hydrazide",110,OCHEM
Nc1cccc(-c2nnco2)c1,"3-(1,3,4-Oxadiazol-2-yl)aniline",67,OCHEM
CNS(=O)(=O)c1ccc(CN)cc1,4-(Aminomethyl)-N-methylbenzene-1-sulfonamide,112,OCHEM
CC(=O)c1ccc(-n2cnc3ccccc32)cc1,1-[4-(1H-Benzimidazol-1-yl)phenyl]ethan-1-one,136,OCHEM
CCOC(=O)c1c(C2CC2)csc1N,ethyl 2-amino-4-cyclopropylthiophene-3-carboxylate,71,OCHEM
NNc1ncccc1C(F)(F)F,2-Hydrazinyl-3-(trifluoromethyl)pyridine,72,OCHEM
Cc1ncncc1C(=O)O,4-Methylpyrimidine-5-carboxylic acid,175,OCHEM
C=CCN1C(=O)c2ccc(C(=O)O)cc2C1=O,"2-allyl-1,3-dioxoisoindoline-5-carboxylic acid",155,OCHEM
CN(C)c1ccc(C2NCC(CCl)O2)cc1 (stereo not drawn),"4-[5-(Chloromethyl)-1,3-oxazolidin-2-yl]-N,N-dimethylaniline",105,OCHEM
CCOc1ccc(NC(C)=O)cc1[N+](=O)[O-],3-Nitro-p-acetophenetide,113.2,PubChem
O=C(Nc1cccc([N+](=O)[O-])c1)OCC(F)(F)F,"2,2,2-Trifluoroethyl (3-nitrophenyl)carbamate",99,OCHEM
CC1=CCC(CCC(C)CO)C1(C)C (stereo not drawn),"3-Cyclopentene-1-butanol, .beta.,2,2,3-tetramethyl-",-67,eChemPortal
CCCCOC(=O)[C@@H]1CCCC[C@@H]1C(=O)OCc1ccccc1 (relative stereo),n/a,-10.04,eChemPortal